{
  "source": "PubChem BioAssay AID651647",
  "about": "(Sanford-Burnham Center for Chemical Genomics, 2012)",
  "note": "Only a part is listed here, and it is no random draw. The source made the active and inactive calls.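 Rule for the calls: active = GFP/RFP ratio change of at least 30% with cell ATP level not reduced by more than half and red fluorescence within 50% of control; inactive = the rest, inconclusive results apart.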",
  "data": [
    {"biological_target": "Matrix metalloproteinase-14 (Homo sapiens) (UniProt P50281)", "test": "blockers of MT1-MMP proenzyme processing, primary screen, HT1080 RFP-PRO-GFP cells, GFP/RFP fluorescence (AID 651647)", "settings": "overnight, at 20 µM, stronger effect = higher value, percent of plate control window, DMSO zero", "summary_of_the_method": "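Read-out: GFP/RFP fluorescence ratio; Test system: RFP-PRO-GFP reporter HT1080 cells; Compound dosing: single-point 20 µM compound, 1% DMSO; Times: overnight compound exposure at 37 °C.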", "values": [
      {"compound": "O=c1[nH]c2ccccc2n1C1CCN(C(c2ccccc2)c2nnnn2C2CCCCC2)CC1", "note": "(configuration not stated)", "GFP/RFP ratio change": "inactive: 1.67%"},
      {"compound": "Fc1ccccc1NC1CCN(Cc2ccccc2)CC1", "GFP/RFP ratio change": "inactive: -1.99%"},
      {"compound": "Cc1ccc(C(=O)NCC2(N3CCCCC3)CCCCC2)o1", "GFP/RFP ratio change": "inactive: -0.861%"},
      {"compound": "Cc1ccc(NC2(C#N)CCN(Cc3ccccc3)CC2)cc1", "GFP/RFP ratio change": "inactive: 0.768%"},
      {"compound": "CCC(c1nnnn1C1CCCCC1)N1CCC(n2c(=O)[nH]c3ccccc32)CC1", "note": "(configuration not stated)", "GFP/RFP ratio change": "inactive: -3.86%"},
      {"compound": "CC(=O)N(c1ccccc1)C1CCNCC1", "GFP/RFP ratio change": "inactive: -4.79%"},
      {"compound": "COc1cccc(C(c2nnnn2C2CCCCC2)N2CCC(n3c(=O)[nH]c4ccccc43)CC2)c1OC", "note": "(configuration not stated)", "GFP/RFP ratio change": "inactive: -1.66%"},
      {"compound": "O=c1[nH]c2ccccc2n1C1CCN(C(c2ccnc3ccccc23)c2nnnn2C2CCCCC2)CC1", "note": "(configuration not stated)", "GFP/RFP ratio change": "inactive: 4.85%"},
      {"compound": "COc1cc(OC)cc(C(=O)NCC2(N3CCCCC3)CCCCC2)c1", "GFP/RFP ratio change": "inactive: 2%"},
      {"compound": "Cn1c(=O)[nH]cc(N(CCCl)CCCl)c1=O", "GFP/RFP ratio change": "inactive: 2.45%"},
      {"compound": "CN(C)c1ccc(C(=O)NCC2(N3CCCCC3)CCCCC2)cc1", "GFP/RFP ratio change": "inactive: 5.09%"},
      {"compound": "O=C(NCC1(N2CCCCC2)CCCCC1)c1ccco1", "GFP/RFP ratio change": "inactive: 3.47%"},
      {"compound": "CC(C)(C)n1nnnc1C(c1ccnc2ccccc12)N1CCC(n2c(=O)[nH]c3ccccc32)CC1", "note": "(configuration not stated)", "GFP/RFP ratio change": "inactive: 1.76%"},
      {"compound": "COc1ccc(C(c2nnnn2C2CCCCC2)N2CCC(n3c(=O)[nH]c4ccccc43)CC2)cc1", "note": "(configuration not stated)", "GFP/RFP ratio change": "inactive: -2.92%"},
      {"compound": "CCN1CCC(Nc2cccc(F)c2)CC1", "GFP/RFP ratio change": "inactive: -1.51%"},
      {"compound": "Cc1ccccc1NC1(C#N)CCN(Cc2ccccc2)CC1", "GFP/RFP ratio change": "inactive: -1.23%"},
      {"compound": "O=C(O)C1(Nc2ccccc2)CCN(Cc2ccccc2)CC1", "GFP/RFP ratio change": "inactive: -2.7%"},
      {"compound": "NN(c1ccccc1)C1CCN(CCc2ccccc2)CC1", "GFP/RFP ratio change": "inactive: 1.04%"},
      {"compound": "CC(C)(C)OC(=O)N1CCC(Nc2ccccc2)CC1", "GFP/RFP ratio change": "inactive: -1.54%"},
      {"compound": "CCCOc1ccc(C(=O)NCC2(N(C)C)CCCCC2)cc1", "GFP/RFP ratio change": "inactive: 1.76%"},
      {"compound": "O=c1[nH]c2ccccc2n1C1CCN(C(c2cc3ccccc3o2)c2nnnn2C2CCCC2)CC1", "note": "(configuration not stated)", "GFP/RFP ratio change": "inactive: -1.92%"},
      {"compound": "CN1CCC(Nc2ccc(F)c(Cl)c2)CC1", "GFP/RFP ratio change": "inactive: 1.04%"},
      {"compound": "CCOc1ncccc1C(=O)NCC1(N2CCOCC2)CCCCC1", "GFP/RFP ratio change": "inactive: 0.472%"},
      {"compound": "CN1CCC(Nc2ccc(Cl)cc2)CC1", "GFP/RFP ratio change": "inactive: -0.349%"},
      {"compound": "COc1cccc(C(c2nnnn2C2CCCC2)N2CCC(n3c(=O)[nH]c4ccccc43)CC2)c1OC", "note": "(configuration not stated)", "GFP/RFP ratio change": "inactive: 1.71%"},
      {"compound": "COc1cc(OC)cc(C(=O)NCC2(N3CCOCC3)CCCCC2)c1", "GFP/RFP ratio change": "inactive: 3.07%"},
      {"compound": "COc1cccc(C(=O)N(c2cc(C)cc(C)c2)C2CCN(C(=O)OC(C)(C)C)CC2)c1", "GFP/RFP ratio change": "inactive: -5.31%"},
      {"compound": "CCC(CO)(C(=O)OC1CN2CCC1CC2)c1ccccc1", "note": "(configuration not stated)", "GFP/RFP ratio change": "inactive: -5.04%"},
      {"compound": "O=c1[nH]c2ccccc2n1C1CCN(C(c2cccs2)c2nnnn2C2CCCCC2)CC1", "note": "(configuration not stated)", "GFP/RFP ratio change": "inactive: 4.33%"},
      {"compound": "O=c1[nH]c2ccccc2n1C1CCN(C(c2ccnc3ccccc23)c2nnnn2C2CCCC2)CC1", "note": "(configuration not stated)", "GFP/RFP ratio change": "inactive: 0.862%"},
      {"compound": "COc1ccc(C(=O)NCC2(N3CCOCC3)CCCCC2)cc1OC", "GFP/RFP ratio change": "inactive: -0.0308%"},
      {"compound": "COc1cc(C(=O)NCC2(N3CCOCC3)CCCCC2)cc(OC)c1C", "GFP/RFP ratio change": "inactive: -3.82%"},
      {"compound": "CCCCn1nnnc1C(c1ccccc1)N1CCC(n2c(=O)[nH]c3ccccc32)CC1", "note": "(configuration not stated)", "GFP/RFP ratio change": "inactive: 3.55%"},
      {"compound": "O=C(NCC1(N2CCOCC2)CCCCC1)c1cc(Br)ccc1Cl", "GFP/RFP ratio change": "inactive: 3.46%"},
      {"compound": "O=c1[nH]c2ccccc2n1C1CCN(C(c2cccs2)c2nnnn2C2CCCC2)CC1", "note": "(configuration not stated)", "GFP/RFP ratio change": "inactive: 0.939%"},
      {"compound": "O=C(OC1CN2CCC1CC2)C1c2ccccc2C=Cc2ccccc21", "note": "(configuration not stated)", "GFP/RFP ratio change": "inactive: -10.8%"},
      {"compound": "CCCCn1nnnc1C(c1cccc(OC)c1OC)N1CCC(n2c(=O)[nH]c3ccccc32)CC1", "note": "(configuration not stated)", "GFP/RFP ratio change": "inactive: -1.53%"},
      {"compound": "COc1cccc(C(c2nnnn2C(C)(C)C)N2CCC(n3c(=O)[nH]c4ccccc43)CC2)c1OC", "note": "(configuration not stated)", "GFP/RFP ratio change": "inactive: 3.58%"},
      {"compound": "CCOC(=O)N1CCC(Nc2ccc(C)cc2)CC1", "GFP/RFP ratio change": "inactive: 4.24%"},
      {"compound": "N/C(=N\\O)c1c(N)no[n+]1[O-]", "GFP/RFP ratio change": "inactive: -2.7%"},
      {"compound": "N#Cc1ccc(C(=O)NCC2(N3CCCCC3)CCCCC2)cc1", "GFP/RFP ratio change": "inactive: 2.35%"},
      {"compound": "CC(C)(C)n1nnnc1C(c1cccc2ccccc12)N1CCC(n2c(=O)[nH]c3ccccc32)CC1", "note": "(configuration not stated)", "GFP/RFP ratio change": "inactive: -2.48%"},
      {"compound": "CN(C)C1(CNC(=O)c2cccc(C#N)c2)CCCCC1", "GFP/RFP ratio change": "inactive: 2.36%"},
      {"compound": "CCCN1CCC(Nc2cc(OC)cc(OC)c2)CC1", "GFP/RFP ratio change": "inactive: -0.704%"},
      {"compound": "O=c1[nH]c2ccccc2n1C1CCN(C(c2ccccc2)c2nnnn2C2CCCC2)CC1", "note": "(configuration not stated)", "GFP/RFP ratio change": "inactive: 1.06%"},
      {"compound": "Cc1cc(N(CCCl)CCCl)ccc1C=O", "GFP/RFP ratio change": "inactive: 3.19%"},
      {"compound": "c1ccc(CN2CCC(Nc3ccccc3)CC2)cc1", "GFP/RFP ratio change": "inactive: -2.9%"}
    ]}
  ]
}
